Data on one compound can be found in patent EP2921486B1, “Compositions and methods for treating beta-amyloid related diseases” (American Life Science Pharmaceuticals, Inc., priority 2009, dated 2011).

In this assay the test system is Aβ(40) and Aβ(42). Nature of the assay: Brain, CSF and plasma Aβ ELISA after once-a-day oral gavage for one week (Example 9). The class given is in vivo, guinea pigs. The settings on record: guinea pig data. From the text:
Guinea Pigs. Guinea Pigs (Harley strain, average weight 400 g corresponding to animals about 6 weeks old) were obtained from Charles River (Wilmington, MA). The animals were given free access to standard chow and water before and during the experiment.
Gavage Formulation: Delivering a drug by gavage offers the advantage of accurate dosing but is traumatic and thus only suitable for relatively short dosing periods. Gavage delivery was used for the guinea pig work. E64d was resuspended in DMSO at indicated concentrations (see Figures, and below) and guinea pigs were gavaged daily using a feeding tube. Vehicle control animals were provided DMSO alone.
Guinea Pig Gavage Dosing: Guinea pigs were gavaged daily for one week. Guinea pigs were lightly anesthetized with isoflurane prior to gavaging. 250 µl of compound solution was gavaged daily per animal and animals were sacrificed 4 hrs after the last dosing.
In general terms: An ELISA detects its analyte on a solid surface through an enzyme-linked reagent.

Molecules are shown by their SMILES.

Regarding `CCOC(=O)[C@H]1O[C@@H]1C(=O)N[C@@H](CC(C)C)C(=O)NCCC(C)C` (relative stereo) [AB-007, (2S,3S)-trans-epoxysuccinyl-L-leucyl-amido-3-methylbutane ethyl ester], the “oral dose maximally effective at lowering brain Aβ and cathepsin B activity” value is reported as 10 mg/kg/day.
